Data from US9873709B2 (priority 2013, dated 2018).

The chains behind the UniProt entries cited, without tags or fusion partners. Residues count along the entry.
UniProt P23458, 875-1153: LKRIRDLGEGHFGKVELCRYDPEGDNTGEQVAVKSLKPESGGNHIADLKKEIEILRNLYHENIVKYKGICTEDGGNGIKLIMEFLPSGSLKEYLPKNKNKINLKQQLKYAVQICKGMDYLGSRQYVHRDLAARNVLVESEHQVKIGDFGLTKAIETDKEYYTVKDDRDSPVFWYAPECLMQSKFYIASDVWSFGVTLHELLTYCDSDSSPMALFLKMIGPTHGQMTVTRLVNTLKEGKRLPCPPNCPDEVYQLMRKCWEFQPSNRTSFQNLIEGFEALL

Target: isolated recombinant JAK1 kinase domain (Homo sapiens (Human), UniProt P23458)
Details: read-out: JAK1 Ki

## CN1CCC(N(C)C(=O)c2ccc(Nc3nc4c(Oc5ccccc5)cccn4n3)cc2)CC1 [Example 1-248, N-Methyl-N-(1-methyl-piperidin-4-yl)-4-(8-phenoxy-[1,2,4]triazolo[1,5-a]pyridine-2-ylamino)-benzamide]
  Ki: 103 nM
